We go through two compounds from patent US20250059164A1, “IRAK DEGRADERS AND USES THEREOF” (Kymera Therapeutics, Inc., priority 2023, published 2025).

Sequences of proteins named here, by UniProt entry; tags and fusion partners are left off.
UniProt Q9NWZ3, whole entry: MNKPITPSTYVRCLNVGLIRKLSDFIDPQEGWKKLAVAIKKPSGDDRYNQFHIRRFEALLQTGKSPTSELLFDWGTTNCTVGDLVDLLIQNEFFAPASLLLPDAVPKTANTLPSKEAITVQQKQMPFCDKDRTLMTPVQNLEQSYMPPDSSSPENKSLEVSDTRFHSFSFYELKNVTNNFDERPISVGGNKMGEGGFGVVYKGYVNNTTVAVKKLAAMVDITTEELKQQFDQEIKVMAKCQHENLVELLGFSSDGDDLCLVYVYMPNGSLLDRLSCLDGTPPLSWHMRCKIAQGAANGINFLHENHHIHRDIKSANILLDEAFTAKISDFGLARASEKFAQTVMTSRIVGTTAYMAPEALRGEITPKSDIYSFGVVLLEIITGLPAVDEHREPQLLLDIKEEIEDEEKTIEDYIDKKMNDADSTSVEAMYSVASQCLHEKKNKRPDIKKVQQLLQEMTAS

In the test the target is IRAK4 (Homo sapiens, UniProt Q9NWZ3). As to the kind of experiment: IRAK4 MSD degradation in OCI-LY10. Conditions: read-out: IRAK4 degradation in OCI-LY10 at 24 hrs: DC50, OCI-LY10 cells, Meso Scale Discovery.

On to `Cn1nc(C2CCC(=O)NC2=O)c2cccc(C3CCN(CC4CCC(n5cc6cc(NC(=O)c7cncc(C#N)c7)c(C(C)(C)O)cc6n5)CC4)CC3(F)F)c21` (centres unmarked), for which the DC50 (as a rule, the concentration at which degradation of the target reaches its halfway point) is less than 10 nM. The value for `Cn1c(=O)n([C@@H]2CCC(=O)NC2=O)c2ccc(F)c([C@@H]3CCN(C[C@H]4CC[C@H](n5cc6cc(NC(=O)c7cncc(C#N)c7)c(C(C)(C)O)cc6n5)CC4)CC3(F)F)c21` (single isomer, unassigned) was less than 10 nM.
